Rows were chosen to be rich in hits. Some 2.5% of all compounds tested hit in one or more screens of this group.
miR-21 reporter = raises the signal of a miR-21 reporter | AID 2288 | 340,000 tested, under 10 active | Potency, µM (series often up to 38.3 µM), without a hit: at the highest dose reporter change, positive = more light | HeLa miR-21 FLuc reporter, luciferase, 48 h; active = well fitted rising curve with a large enough effect; inconclusive = small, poorly fitted or top-dose-only effect; inactive = no such curve, though single readings can be large or run the other way;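 further: % of control where 0% means no effect; miR-21 action dims this reporter so a rising signal means less miR-21 action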
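Compounds were titrated across several concentrations (up to approximately 40 uM) and incubated 48 hours with HeLa miR-21-FLuc reporter cells (miR-21 target sequence downstream of FLuc, endogenous miR-21). Readout was firefly luciferase luminescence after lytic detection reagent.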
ClpP mod = qHTS Assay for Activators of ClpP. Potency, µM (doses to about 57.5 µM), without a hit: at the highest dose activity change, negative = active. purified B. subtilis ClpP, FRET peptide cleavage, 20 min. 340,000 compounds, 1.9% hits. ATP-dependent Clp protease proteolytic subunit (Bacillus subtilis (strain 168)), P80244; active = well fitted falling curve with a large enough effect; inconclusive = small, poorly fitted or top-dose-only effect; inactive = no such curve, though single readings can be large or run the other way; note: potency is the fitted concentration of half-maximal effect; the source files actives as falling curves though it sought activators and does not explain the sign; nearly all actives have a fitted effect of over 65% in size
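Buffer: 100 mM Tris/HCl pH8, 100 mM KCl, 0.05% low protease BSA, 2.5% glycerol, 0.01% Tween-20. ClpP 10 microg/mL final; 20 min RT; delta FRET normalized to ADEP and DMSO controls.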
Apoferritin bind = candidate novel general anesthetic via apoferritin binding; P02791; apoferritin/1-aminoanthracene competitive binding, fluorescence; Potency, µM (doses to about 77.5 µM), for the others: top-dose activity change, negative = displacement, hits mostly inhibitors; 350,000 compounds, 0.074% hits; AID 485281; note: potency is the fitted concentration of half-maximal effect; % is set by controls: 0 for no effect and ±100 for the full control effect; nearly all actives have a fitted effect of over 20% in size
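In PBS, apoferritin at 10 uM is loaded with 1-AMA from a 50% saturated solution. After 10 min of compound exposure at ambient temperature, reduced 535 nm fluorescence indicates probe displacement.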
rTrxR1 inhibitor = blocks rat thioredoxin reductase 1; 390,000 compounds, 1% hits; O89049; Potency, µM (highest dose often 114 µM), for inactives: at the highest dose activity change, negative = inhibition, actives largely listed as inhibitors; recombinant rTrxR1, NADPH fluorescence consumption, selenite substrate; note: potency is the fitted concentration of half-maximal effect; % is set by controls: 0 for no effect and ±100 for the full control effect; nearly all actives have a fitted effect of over 65% in size
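Rat TrxR1 (90 nM in the dispensed reagent) was pre-reduced with 400 uM NADPH for 5 min at room temperature, then incubated with compound for 15 min. After 400 uM selenite was added, NADPH fluorescence (Ex 340/Em 450 nm) was followed for 8 min.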
TrxR1 substrate = rat thioredoxin reductase 1 substrate activity | Potency, µM (series often up to 114 µM), inactives show at the highest dose activity change, negative = substrate turnover | 390,000 compounds, 0.01% hits | purified TrxR1 substrate turnover, NADPH consumption readout; note: potency is the fitted concentration of half-maximal effect; % is set by controls: 0 for no effect and ±100 for the full control effect; nearly all actives have a fitted effect of over 50% in size
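Rat TrxR1, dispensed at 90 nM, was prereduced with 400 uM NADPH (final) for 5 min at ~22 deg C, then incubated with compound 15 min before 400 uM selenite. A first-read NADPH fluorescence drop versus no-compound background flagged substrates.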
* = called active by the depositor; ? = inconclusive; . = not tested or not shown; [ ] = dose if it differs, or a comment. Unless noted, calls come from the whole dose curve; as a rule, active = well fitted curve in the direction sought with a large enough effect; inconclusive = small, poorly fitted or top-dose-only effect, or another doubt; inactive = no such curve, though single readings can be large; an effect the other way counts as inactive or inconclusive.

Amino acid sequences for entries named in this document (tags omitted).
ATP-dependent Clp protease proteolytic subunit (Bacillus subtilis (strain 168)), P80244, UniProt P80244, whole entry, looked up: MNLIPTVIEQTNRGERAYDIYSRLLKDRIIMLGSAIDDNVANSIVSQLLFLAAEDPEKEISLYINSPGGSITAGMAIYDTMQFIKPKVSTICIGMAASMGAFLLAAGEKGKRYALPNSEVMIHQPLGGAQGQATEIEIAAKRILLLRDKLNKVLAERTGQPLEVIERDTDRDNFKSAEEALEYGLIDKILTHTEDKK

SMILES | miR-21 reporter | ClpP mod | Apoferritin bind | rTrxR1 inhibitor | TrxR1 substrate
CC(C)Cc1nc2oc3c(Cl)ncnc3c2c2c1CCC2 | -0.9% | 31.6µM* | -9.3% | ? | 10.6%[57.1 µM]
CC(C)Cc1nc2oc3c(NCCCN4CCOCC4)ncnc3c2c2c1CCC2 | -10.1% | ? | -8.3% | 12.1% | 21.6%
CC(C)CCNC(=O)CCS(=O)(=O)c1cccc2nonc12 | -5.0% | 0.3% | -8.4% | 56.2µM* | -2.7%
COc1cccc(CNC(=O)CCS(=O)(=O)c2cccc3nsnc23)c1 | -6.4% | -2.6% | -15.4% | -5.4% | -6.5%
COc1cccc(CNC(=O)CCS(=O)(=O)c2cccc3nonc23)c1 | -5.1% | -0.5% | -13.2% | 15.8µM* | -0.5%
CC(C)NC(=O)CCS(=O)(=O)c1cccc2nonc12 | 0.0% | -0.9% | 2.9% | -31.6%[57.1 µM] | 15.0%[57.1 µM]
O=C1C=CC(=O)c2c(O)c(N3CCN(CCO)CC3)c(Cl)c(O)c21 | . | -3.0% | . | 17.8% | 56.2µM*
CCOC(=O)c1ccccc1NC(=O)NCc1c(-n2cccc2)sc2c1CCCC2 | -2.9% | ? | 5.1% | 13.9% | -2.3%
O=C(CCSc1nnc2ccc3ccccc3n12)Nc1ccc(F)cc1 | -6.1% | -23.1% | 2.0% | 14.1% | 19.2%
O=C(CCSc1nnc2ccccn12)Nc1ccc(F)cc1 | -12.3% | 28.2µM* | 3.8% | 20.9% | 39.5%
CC1(C)CC(=O)C2=C(C1)OC1=C(C(=O)CC(C)(C)C1)C2c1ccc(O)cc1O | ? | 17.2% | 10.6% | 3.55µM* | 1.4%
CC1(C)CC(=O)C2=C(C1)OC1=C(C(=O)CC(C)(C)C1)C2c1ccc(O)c([N+](=O)[O-])c1 | 2.1% | 1.3% | -6.1% | 17.7% | 4.6%
Cc1c(NC(=O)c2cc(-c3cccc(O)c3)on2)c(=O)n(-c2ccccc2)n1C | 6.3% | -0.6% | -5.9% | -13.5% | -4.1%
Cc1ccc2[nH]c3c(=O)n(CC(=O)N4CCN(C)CC4)ncc3c2c1 | 1.0% | 4.3% | -5.9% | 35.5µM* | 1.7%
Cc1cc(C)cc(OCC(=O)NCC2(N(C)C)CCCCC2)c1 | 1.4% | 2.1% | 9.1% | 12.4% | -8.0%
Cc1ccc2oc(C(=O)N(Cc3ccccc3F)C3CCS(=O)(=O)C3)c(C)c2c1 (configuration not stated) | 2.8% | -3.6% | 2.6% | 5.7% | -9.7%
CCOc1cc(C(Nc2cc(C)ccn2)c2ccc3cccnc3c2O)ccc1OC (configuration not stated) | 23.2% | -0.5% | -6.7% | 1.26µM* | -7.1%
CC(=O)OCC1OC(n2ccc3ccccc32)C(OC(C)=O)C(OC(C)=O)C1OC(C)=O (configuration not stated) | 0.2% | 0.6% | -9.2% | 5.9% | 3.4%
CC(=O)OCC1OC(Sc2cccc3cccnc23)C(OC(C)=O)C(OC(C)=O)C1OC(C)=O (configuration not stated) | 3.2% | 15.8µM* | -14.6% | -10.4% | 62.4%
Cc1ccc(C(c2sc3nc(-c4ccco4)nn3c2O)N2CCC3(CC2)OCCO3)cc1 (configuration not stated) | -2.1% | 1.3% | -0.6% | 7.7%[57.1 µM] | 0.9%[57.1 µM]
O=C(CCNS(=O)(=O)c1ccc2c(c1)CCCC(=O)N2)Nc1cccc(Cl)c1 | -0.1% | -22.7% | 1.3% | 1.9% | -7.5%
O=[N+]([O-])c1ccn(-c2nc(-c3cccs3)cc(C(F)(F)F)n2)n1 | 0.3% | -1.2% | -6.9% | 29.1% | 9.3%
FC(F)(F)c1cc(-c2cccs2)nc(-n2cc(Cl)cn2)n1 | -1.5% | 31.6µM* | ? | 55.5% | 55.4%
O=C(C#Cc1ccccc1)c1cccc([N+](=O)[O-])c1 | 8.4% | 1.5% | -14.6% | 0.1µM* | -3.6%
CC(=O)c1cccc([N+](=O)[O-])c1 | . | 2.3% | . | -3.0% | -2.5%
Clc1cncc(Cl)c1NNc1c2ccccc2nc2ccccc12 | -7.5% | 28.2µM* | 37.3% | -0.4% | 32.4%
COc1ccc(-c2nn3c(-c4cc(-c5ccccc5)n[nH]4)nnc3s2)cc1OC | . | 1.2% | . | 0.2% | -3.5%
COc1ccc(-c2nc3cc(C)ccn3c2NCc2ccc3c(c2)OCO3)cc1 | -38.8% | 28.2µM* | -5.2% | -0.3% | 13.2%
Cc1cc(C)cc(NC(=O)C2CCN(S(=O)(=O)c3cccc(-c4noc(C)n4)c3)CC2)c1 | ? | 0.5% | -12.3% | 19.3%[57.1 µM] | 4.7%[57.1 µM]
CCOC(=O)CNC1CC(=O)N(c2ccc(Br)cc2)C1=O (configuration not stated) | -6.4% | -3.3% | -3.7% | 28.2µM* | 3.1%
O=C(NNC1CC(=O)N(c2ccc(Br)cc2)C1=O)c1cccs1 (configuration not stated) | -17.9% | -0.3% | -10.4% | -15.2% | -1.0%
COc1ccc(N2C(=O)CC(NCC#N)C2=O)cc1 (configuration not stated) | 2.3% | . | -3.6% | 31.6µM* | 1.3%
NS(=O)(=O)c1ccc(NC(=S)Nc2ccn(Cc3cccc4ccccc34)n2)cc1 | 18.5% | . | -6.7% | 12.6µM* | -0.8%[57.1 µM]
NS(=O)(=O)c1ccc(NS(=O)(=O)c2ccc(NC(=S)Nc3ccccc3)cc2)cc1 | -7.5% | . | 4.0% | ? | 9.0%[57.1 µM]
NC1=NC(=O)/C(=C\c2ccc(-c3ccccc3[N+](=O)[O-])o2)S1 | . | -1.9% | . | ? | -7.4%
O=CNc1ccc(OC(=O)c2cncc(Br)c2)cc1 | -0.3% | . | 1.2% | 10.5% | 0.8%
O=C(Oc1ccc([N+](=O)[O-])cc1)c1cncc(Br)c1 | -15.0% | -2.7% | -8.4% | 17.8µM* | 3.5%
COc1ccc(NC(=O)Cn2c(=O)n(-c3ccccc3)c(=O)c3c4c(sc32)CCCC4)cc1 | -1.7% | -2.9% | -3.3% | 16.5% | 1.2%
CCn1c(SCC(=O)Nc2ccc(NC(=O)c3ccco3)c(OC)c2)nc2ccccc2c1=O | -0.6% | 28.2µM* | -9.2% | 55.2% | 76.1%
COCCn1c(SCC(=O)Nc2ccc(NC(=O)c3ccco3)c(OC)c2)nc2ccccc2c1=O | -6.5% | -65.2% | -8.0% | 23.2% | 69.7%
Cc1cccc(C(=O)Nc2cc3nn(-c4ccc(C(C)C)cc4)nc3cc2C)c1 | -5.6% | 10µM* | 0.1% | 40.0% | 20.1%
Cc1cc2nn(-c3ccc(F)cc3)nc2cc1NC(=O)c1ccc(OC(C)C)cc1 | -10.2% | 11.2% | 0.7% | 89.1µM* | 93.2%
CCCCOc1cccc(C(=O)Nc2cc3nn(-c4ccc(F)cc4)nc3cc2C)c1 | -31.6% | -12.6% | -5.0% | 36.5%[11.4 µM] | 23.1%
O=C(Nc1cc(F)ccc1F)C1CCN(C(=O)c2cnn(-c3ccccc3)c2-n2cccc2)CC1 | 7.8% | 0.6% | -8.3% | 14.5% | 3.2%
CN(C)c1ccc(Cc2cc3c(O)ccc(O)c3cc(Cc3ccc(N(C)C)cc3)c2=O)cc1 | . | -2.2% | . | 11.2µM* | -13.4%
CCN(CC)CCN(C(=O)CCS(=O)(=O)c1ccccc1)c1nc2cc(OC)c(OC)cc2s1 | 0.9% | -2.0% | 5.2% | 11.2µM* | -3.4%
